Key:
[1] = biological target: Mu-type opioid receptor (Rattus norvegicus, UniProt P33535); test: Displacement of [3H]diprenorphine from rat mu opioid receptor expressed in HEK293 cells
[2] = biological target: Delta-type opioid receptor (Mus musculus, UniProt P32300); test: Displacement of [3H]diprenorphine from mouse delta opioid receptor expressed in HEK293 cells

Amino acid sequences for entries named in this document (tags omitted).
UniProt P33535, whole entry, looked up: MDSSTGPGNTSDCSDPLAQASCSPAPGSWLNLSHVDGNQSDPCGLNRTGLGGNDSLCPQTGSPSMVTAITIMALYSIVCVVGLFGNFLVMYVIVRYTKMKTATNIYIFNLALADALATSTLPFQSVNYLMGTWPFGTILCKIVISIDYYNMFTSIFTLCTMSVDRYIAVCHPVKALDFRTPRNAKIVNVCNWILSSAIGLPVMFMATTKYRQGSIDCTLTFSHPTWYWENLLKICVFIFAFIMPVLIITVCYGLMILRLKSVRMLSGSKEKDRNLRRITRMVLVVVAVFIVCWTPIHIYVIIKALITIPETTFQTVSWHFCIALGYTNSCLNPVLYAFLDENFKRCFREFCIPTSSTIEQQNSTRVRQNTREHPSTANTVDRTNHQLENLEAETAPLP
UniProt P32300, whole entry, looked up: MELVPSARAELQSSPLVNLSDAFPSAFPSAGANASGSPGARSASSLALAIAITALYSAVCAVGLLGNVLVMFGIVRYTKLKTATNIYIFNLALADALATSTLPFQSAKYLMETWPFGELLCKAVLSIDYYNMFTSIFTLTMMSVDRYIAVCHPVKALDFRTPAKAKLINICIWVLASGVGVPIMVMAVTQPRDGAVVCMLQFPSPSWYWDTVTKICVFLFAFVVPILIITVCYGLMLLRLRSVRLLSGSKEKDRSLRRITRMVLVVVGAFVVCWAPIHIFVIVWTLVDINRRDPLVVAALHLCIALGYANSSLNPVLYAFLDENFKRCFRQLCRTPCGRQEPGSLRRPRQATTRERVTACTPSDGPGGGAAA

## COC(=O)[C@@H]1C[C@H](OC(C)=O)C(=O)[C@H]2[C@@]1(C)CC[C@H]1C(=O)O[C@H](c3ccoc3)C[C@]21C [SALVINORIN A]
[1]
  Ki: > 25 µM
[2]
  Ki: > 25 µM
